Molecules are shown by their SMILES. pIC50: −log10 of the molar value.

This experiment addresses T1, Interstitial collagenase (Homo sapiens, UniProt P03956).
T1 sequence (P03956 whole entry): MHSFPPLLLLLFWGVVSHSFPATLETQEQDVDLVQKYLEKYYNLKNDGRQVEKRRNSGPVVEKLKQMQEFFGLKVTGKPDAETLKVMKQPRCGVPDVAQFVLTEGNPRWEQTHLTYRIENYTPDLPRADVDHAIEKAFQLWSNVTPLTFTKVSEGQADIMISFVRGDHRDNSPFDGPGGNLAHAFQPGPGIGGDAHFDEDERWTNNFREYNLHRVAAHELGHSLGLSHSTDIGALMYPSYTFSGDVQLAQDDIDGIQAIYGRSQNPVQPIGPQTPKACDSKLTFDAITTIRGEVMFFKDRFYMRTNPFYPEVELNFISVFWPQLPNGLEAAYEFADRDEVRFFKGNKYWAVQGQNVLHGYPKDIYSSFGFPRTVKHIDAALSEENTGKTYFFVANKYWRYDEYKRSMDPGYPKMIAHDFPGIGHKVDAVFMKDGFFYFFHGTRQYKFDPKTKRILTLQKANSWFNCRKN
Put plainly: Inhibitory concentration against MMP-1.
For the compound `Cc1ccc(F)cc1COc1ccc(S(=O)(=O)N2CCC[C@@](C)(O)[C@@H]2C(=O)NO)cc1`, the pIC50 (usually the IC50 on a negative log10 scale, so that one unit is a factor of ten) is 6.22.
`C[C@@]1(O)CCCN(S(=O)(=O)c2ccc(OCc3ccccc3Cl)cc2)[C@H]1C(=O)NO` had a pIC50 of 6.57.
Compound `Cc1cc(F)ccc1COc1ccc(S(=O)(=O)N2CCC[C@@](C)(O)[C@@H]2C(=O)NO)cc1` gave a pIC50 of 6.66.

The record behind these values is ChEMBL document CHEMBL1139577, “Discovery of 3-OH-3-methylpipecolic hydroxamates: potent orally active inhibitors of aggrecanase and MMP-13” (Bioorg Med Chem Lett, 2005).
